Test results as given in patent EP4834897A1, “COMPOUNDS WITH TWO AZAHETEROCYCLES SUBSTITUTED ISOINDOLINONE SKELETON AND USES THEREOF” (dated 2026).

By UniProt entry, the sequences of proteins in these tests, tags left out.
UniProt Q96SW2, whole entry: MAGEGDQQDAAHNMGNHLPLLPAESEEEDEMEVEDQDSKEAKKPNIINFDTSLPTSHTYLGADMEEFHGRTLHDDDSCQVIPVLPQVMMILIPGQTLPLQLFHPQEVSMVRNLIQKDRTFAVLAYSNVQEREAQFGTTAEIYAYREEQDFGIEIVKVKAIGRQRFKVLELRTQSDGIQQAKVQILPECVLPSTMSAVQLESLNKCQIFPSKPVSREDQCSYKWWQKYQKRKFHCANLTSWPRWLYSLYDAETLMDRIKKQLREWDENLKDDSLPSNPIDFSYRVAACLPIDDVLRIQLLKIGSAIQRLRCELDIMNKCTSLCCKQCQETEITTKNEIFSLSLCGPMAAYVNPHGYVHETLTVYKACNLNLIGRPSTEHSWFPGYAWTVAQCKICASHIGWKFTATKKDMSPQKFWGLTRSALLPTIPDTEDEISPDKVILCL
UniProt Q9UKT9, whole entry: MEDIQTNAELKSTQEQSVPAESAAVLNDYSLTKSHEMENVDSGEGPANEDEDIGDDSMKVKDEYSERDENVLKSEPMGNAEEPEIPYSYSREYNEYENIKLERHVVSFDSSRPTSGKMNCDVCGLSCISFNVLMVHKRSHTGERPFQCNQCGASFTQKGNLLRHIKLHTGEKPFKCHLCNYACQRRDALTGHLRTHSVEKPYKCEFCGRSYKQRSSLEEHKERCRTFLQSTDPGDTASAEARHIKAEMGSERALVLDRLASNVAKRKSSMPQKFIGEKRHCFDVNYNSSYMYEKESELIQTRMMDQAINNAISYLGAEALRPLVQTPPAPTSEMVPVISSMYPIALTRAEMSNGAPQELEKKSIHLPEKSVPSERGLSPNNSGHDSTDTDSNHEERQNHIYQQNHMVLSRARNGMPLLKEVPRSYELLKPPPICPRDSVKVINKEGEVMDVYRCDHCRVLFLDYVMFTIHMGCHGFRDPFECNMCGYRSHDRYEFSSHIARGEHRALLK
UniProt P30291, whole entry: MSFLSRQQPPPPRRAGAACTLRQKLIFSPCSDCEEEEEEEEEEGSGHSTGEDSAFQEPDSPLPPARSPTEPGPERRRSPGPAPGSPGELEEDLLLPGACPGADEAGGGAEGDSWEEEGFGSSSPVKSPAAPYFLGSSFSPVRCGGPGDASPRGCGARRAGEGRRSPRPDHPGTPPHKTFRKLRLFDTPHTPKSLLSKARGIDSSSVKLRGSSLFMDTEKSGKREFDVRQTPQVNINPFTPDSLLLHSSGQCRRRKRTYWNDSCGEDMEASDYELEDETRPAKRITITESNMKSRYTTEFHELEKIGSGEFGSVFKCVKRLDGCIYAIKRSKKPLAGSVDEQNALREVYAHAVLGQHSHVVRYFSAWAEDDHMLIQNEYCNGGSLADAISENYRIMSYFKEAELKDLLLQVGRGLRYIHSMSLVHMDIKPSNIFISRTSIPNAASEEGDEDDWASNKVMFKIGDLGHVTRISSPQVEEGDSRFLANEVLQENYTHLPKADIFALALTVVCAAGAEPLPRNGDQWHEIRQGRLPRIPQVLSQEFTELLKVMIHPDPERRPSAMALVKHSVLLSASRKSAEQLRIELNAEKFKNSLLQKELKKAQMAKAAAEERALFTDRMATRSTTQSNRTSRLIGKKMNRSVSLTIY
UniProt P48729, whole entry: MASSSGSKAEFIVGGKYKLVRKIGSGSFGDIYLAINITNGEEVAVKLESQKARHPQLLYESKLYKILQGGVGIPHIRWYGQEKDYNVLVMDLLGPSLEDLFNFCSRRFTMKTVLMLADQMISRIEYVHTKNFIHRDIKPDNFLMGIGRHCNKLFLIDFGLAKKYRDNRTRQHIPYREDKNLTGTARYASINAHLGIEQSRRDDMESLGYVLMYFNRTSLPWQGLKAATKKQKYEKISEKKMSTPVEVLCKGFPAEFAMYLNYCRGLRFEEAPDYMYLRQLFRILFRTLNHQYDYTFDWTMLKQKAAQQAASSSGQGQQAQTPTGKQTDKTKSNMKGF
UniProt P15170, whole entry: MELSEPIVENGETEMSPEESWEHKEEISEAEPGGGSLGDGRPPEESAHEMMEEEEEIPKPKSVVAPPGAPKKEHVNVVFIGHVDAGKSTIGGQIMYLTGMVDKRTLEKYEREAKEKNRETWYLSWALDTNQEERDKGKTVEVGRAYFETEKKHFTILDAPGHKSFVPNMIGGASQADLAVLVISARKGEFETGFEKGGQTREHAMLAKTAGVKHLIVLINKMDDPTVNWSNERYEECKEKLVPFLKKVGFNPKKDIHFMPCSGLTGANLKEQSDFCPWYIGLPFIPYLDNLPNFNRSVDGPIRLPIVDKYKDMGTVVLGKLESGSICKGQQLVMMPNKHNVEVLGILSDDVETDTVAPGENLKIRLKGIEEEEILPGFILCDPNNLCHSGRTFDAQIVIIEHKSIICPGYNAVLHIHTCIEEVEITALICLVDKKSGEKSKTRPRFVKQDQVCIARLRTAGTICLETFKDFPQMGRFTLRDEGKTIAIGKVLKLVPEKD
UniProt Q13422, whole entry: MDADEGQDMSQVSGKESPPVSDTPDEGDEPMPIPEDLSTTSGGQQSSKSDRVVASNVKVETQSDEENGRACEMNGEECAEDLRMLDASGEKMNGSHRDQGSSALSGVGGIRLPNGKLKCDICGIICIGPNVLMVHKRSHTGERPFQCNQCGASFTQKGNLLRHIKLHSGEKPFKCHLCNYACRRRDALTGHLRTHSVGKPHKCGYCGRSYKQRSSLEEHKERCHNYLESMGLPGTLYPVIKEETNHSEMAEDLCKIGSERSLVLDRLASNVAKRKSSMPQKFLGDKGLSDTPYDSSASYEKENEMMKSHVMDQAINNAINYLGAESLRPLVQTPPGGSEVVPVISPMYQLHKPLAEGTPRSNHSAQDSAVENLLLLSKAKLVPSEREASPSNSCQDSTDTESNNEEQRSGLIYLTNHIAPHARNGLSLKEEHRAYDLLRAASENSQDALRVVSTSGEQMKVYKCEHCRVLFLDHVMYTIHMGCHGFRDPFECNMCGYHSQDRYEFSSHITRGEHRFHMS
UniProt Q9UKS7, whole entry: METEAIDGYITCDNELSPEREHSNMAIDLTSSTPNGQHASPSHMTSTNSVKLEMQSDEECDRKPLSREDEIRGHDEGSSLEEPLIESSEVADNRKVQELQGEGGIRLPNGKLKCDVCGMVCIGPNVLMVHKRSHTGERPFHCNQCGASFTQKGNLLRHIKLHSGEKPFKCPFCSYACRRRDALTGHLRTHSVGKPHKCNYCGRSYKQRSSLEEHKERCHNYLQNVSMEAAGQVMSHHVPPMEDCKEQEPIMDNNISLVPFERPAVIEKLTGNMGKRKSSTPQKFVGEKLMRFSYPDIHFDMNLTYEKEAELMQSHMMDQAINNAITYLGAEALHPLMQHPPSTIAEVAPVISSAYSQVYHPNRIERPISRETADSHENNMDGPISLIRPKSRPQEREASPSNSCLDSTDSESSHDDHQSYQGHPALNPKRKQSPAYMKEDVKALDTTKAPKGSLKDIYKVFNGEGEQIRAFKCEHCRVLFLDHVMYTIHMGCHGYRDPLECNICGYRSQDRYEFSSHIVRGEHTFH
UniProt Q16531, whole entry partner: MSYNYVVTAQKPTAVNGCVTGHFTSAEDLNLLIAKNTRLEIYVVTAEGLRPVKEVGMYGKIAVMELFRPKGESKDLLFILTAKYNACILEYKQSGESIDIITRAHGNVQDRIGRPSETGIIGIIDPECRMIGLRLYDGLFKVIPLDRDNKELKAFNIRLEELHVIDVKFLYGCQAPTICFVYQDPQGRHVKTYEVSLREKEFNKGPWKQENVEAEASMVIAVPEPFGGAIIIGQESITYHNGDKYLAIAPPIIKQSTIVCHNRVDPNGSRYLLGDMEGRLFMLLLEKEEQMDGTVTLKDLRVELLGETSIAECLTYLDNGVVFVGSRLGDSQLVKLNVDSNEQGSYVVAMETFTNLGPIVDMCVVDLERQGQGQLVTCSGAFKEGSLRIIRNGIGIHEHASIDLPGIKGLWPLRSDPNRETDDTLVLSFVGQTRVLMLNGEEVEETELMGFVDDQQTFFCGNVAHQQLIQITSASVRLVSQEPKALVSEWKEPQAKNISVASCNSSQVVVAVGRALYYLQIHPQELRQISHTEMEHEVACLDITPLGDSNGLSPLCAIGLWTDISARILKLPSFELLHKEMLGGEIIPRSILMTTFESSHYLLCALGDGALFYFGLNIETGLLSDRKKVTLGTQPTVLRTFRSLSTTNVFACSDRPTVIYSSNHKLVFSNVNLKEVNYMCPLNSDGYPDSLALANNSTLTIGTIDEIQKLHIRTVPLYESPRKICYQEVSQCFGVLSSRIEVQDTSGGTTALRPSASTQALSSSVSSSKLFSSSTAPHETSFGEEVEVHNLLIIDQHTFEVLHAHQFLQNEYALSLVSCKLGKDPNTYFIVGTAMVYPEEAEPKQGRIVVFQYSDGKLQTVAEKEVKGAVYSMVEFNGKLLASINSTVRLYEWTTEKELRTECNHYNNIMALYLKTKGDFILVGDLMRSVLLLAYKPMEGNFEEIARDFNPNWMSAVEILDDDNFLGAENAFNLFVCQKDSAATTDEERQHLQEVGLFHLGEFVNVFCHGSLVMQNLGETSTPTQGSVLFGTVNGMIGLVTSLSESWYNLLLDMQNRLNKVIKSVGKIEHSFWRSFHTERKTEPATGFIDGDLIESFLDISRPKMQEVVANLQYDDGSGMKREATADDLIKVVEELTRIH

Tests used:
IL-2 = assay: Inflammatory cytokine release from PBMCs induced by PHA (flow cytometry CBA); details: PBMCs, PHA 1 µg/mL, 24 h
TNF-α = assay: as above; details: PHA 1 µg/mL, 24 h
IL-1α = assay: as above; details: PHA 1 µg/mL, 24 h
IL-10 = assay: as above; details: PBMCs, PHA 1 µg/mL, 24 h
IKZF3 = IKZF3 (Homo sapiens, UniProt Q96SW2+Q9UKT9); assay: Western blot assay of substrate protein degradation in hPBMCs; details: 24 hours treatment, compounds at 50 nM and 500 nM (concentration behind the class not stated)
WEE1 = WEE1 (Homo sapiens, UniProt P30291+Q96SW2); assay: as above; details: 24 hours treatment, compounds at 50 nM and 500 nM (concentration behind the class not stated)
CK1α = CK1α (Homo sapiens, UniProt P48729+Q96SW2); assay: as above; details: 24 hours treatment, compounds at 50 nM and 500 nM (concentration behind the class not stated)
GSPT1 = GSPT1 (Homo sapiens, UniProt P15170+Q96SW2); assay: as above; details: 24 hours treatment, compounds at 50 nM and 500 nM (concentration behind the class not stated)
IKZF1 = IKZF1 (Homo sapiens, UniProt Q13422+Q96SW2); assay: as above; details: 24 hours treatment, compounds at 50 nM and 500 nM (concentration behind the class not stated)
IKZF2 = IKZF2 (Homo sapiens, UniProt Q96SW2+Q9UKS7); assay: as above; details: 24 hours treatment, compounds at 50 nM and 500 nM (concentration behind the class not stated)
CRBN = CRBN (Homo sapiens, UniProt Q96SW2); assay: CRBN binding affinity by HTRF (CEREBLON BINDING kit); details: for Inhibition Rate at 0.5 µM (%) / Inhibition Rate at 2 µM (%): CRBN binding, HTRF; for Inhibition Rate at 0.5 µM (%): compound at 0.5 µM; for Inhibition Rate at 2 µM (%): compound at 2 µM; for IC50: read-out: HTRF IC50, human Cereblon WT GST-tagged protein, 3 hours at room temperature
IL-5 = assay: Inflammatory cytokine release from PBMCs induced by PMA + Ionomycin (flow cytometry CBA); details: 24 h
GM-CSF = assay: as above; details: 24 h
IL-1β = assay: Inflammatory cytokine release from PBMCs induced by PHA (flow cytometry CBA); details: 0.1 µM, PHA 1 µg/mL, 24 h
[1] = tested on: Human multiple myeloma cell (MM.1S); assay: Tumor cell proliferation inhibition (cell viability assay); details: MM.1S cells, 96 hours
Kasumi-1 = assay: as above; details: read-out: Inhibitory activity against tumor cells proliferation (IC50, nM) Kasumi-1; Kasumi-1 cells; 72 hours
MM.1R = assay: as above; details: read-out: Inhibitory activity against tumor cells proliferation (IC50, nM) MM.1R; MM.1R cells; 96 hours
Vcap = assay: as above; details: read-out: Inhibitory activity against tumor cells proliferation (IC50, nM) Vcap, 96 hours
CCRF-CEM = assay: as above; details: read-out: Inhibitory activity against tumor cells proliferation (IC50, nM) CCRF-CEM, 96 hours
Jurkat = assay: as above; details: read-out: Inhibitory activity against tumor cells proliferation (IC50, nM) Jurkat, 96 hours
HEP3B2.1-7 = assay: as above; details: read-out: Inhibitory activity against tumor cells proliferation (IC50, nM) HEP3B2.1-7; HEP3B2.1-7 cells; 96 hours

Compound	Inhibition Rate at 0.5 µM (%) (CRBN)	Inhibition Rate at 2 µM (%) (CRBN)	Inhibition Rate (%) IL-2 (IL-2; 0.1 µM)	Inhibition Rate (%) TNF-α (TNF-α; 0.1 µM)	Inhibition Rate (%) IL-1α (IL-1α; 0.1 µM)	Inhibition Rate (%) IL-10 (IL-10; 0.1 µM)	Inhibition Rate (%) IL-10 (IL-10; 1 µM)	substrate protein remaining % (IKZF3) (IKZF3)	substrate protein remaining % (WEE1) (WEE1)	substrate protein remaining % (CK1a) (CK1α)	substrate protein remaining % (GSPT1) (GSPT1)	substrate protein remaining % (IKZF 1) (IKZF1)	substrate protein remaining % (IKZF2) (IKZF2)	Inhibition Rate (%) IL-5 (IL-5; 0.1 µM)	Inhibition Rate (%) IL-5 (IL-5; 1 µM)	Inhibition Rate (%) TNF-α (TNF-α; 1 µM)	Inhibition Rate (%) IL-2 (IL-2; 1 µM)	Inhibition Rate (%) IL-1α (IL-1α; 1 µM)	further results
O=C1CCC(N2Cc3c(ccc(CN4CCC(N5CCN(C(c6ccccc6)c6ccccc6)CC5)C(F)(F)C4)c3F)C2=O)C(=O)N1 (stereo not drawn)	–	–	–	–	–	–	–	A (0% ≤ substrate protein remaining % ≤ 80%)	A (0% ≤ substrate protein remaining % ≤ 80%)	A (0% ≤ substrate protein remaining % ≤ 80%)	A (0% ≤ substrate protein remaining % ≤ 80%)	A (0% ≤ substrate protein remaining % ≤ 80%)	A (0% ≤ substrate protein remaining % ≤ 80%)	–	–	–	–	–	IC50 (CRBN): 1000 to 1500 nM; IC50 (Kasumi-1): 200 to 500 nM; IC50 (MM.1R): 20 to 50 nM; IC50 (Vcap): 100 to 200 nM; IC50 (CCRF-CEM): 20 to 50 nM; IC50 (Jurkat): 50 to 100 nM; IC50 (HEP3B2.1-7): 20 to 50 nM; IC50 ([1]; read-out: Inhibitory activity against tumor cells proliferation (IC50, nM) MM.1S): 20 to 50 nM
O=C1CCC(N2C(=O)c3ccc(CN4CCC(N5CCN(C(c6ccccc6)c6ccccc6)CC5)CC4)cc3C2=O)C(=O)N1 (stereo not drawn)	–	–	IV11 (60% < IV11 ≤ 70%)	IV11 (60% < IV11 ≤ 70%)	IV11 (60% < IV11 ≤ 70%)	IV9 (40% < IV9 ≤ 50%)	IV7 (20% < IV7 ≤ 30%)	A (0% ≤ substrate protein remaining % ≤ 80%)	B (80%< substrate protein remaining %≤ 100%)	B (80%< substrate protein remaining %≤ 100%)	B (80%< substrate protein remaining %≤ 100%)	B (80%< substrate protein remaining %≤ 100%)	B (80%< substrate protein remaining %≤ 100%)	IV10 (50% < IV 10 ≤ 60%)	IV8 (30% < IV8 ≤ 40%)	IV8 (30% < IV8 ≤ 40%)	IV9 (40% < IV9 ≤ 50%)	IV5 (0% < IV5 ≤ 10%)	Inhibition Rate (%) GM-CSF (GM-CSF; 0.1 µM): IV9 (40% < IV9 ≤ 50%); Inhibition Rate (%) GM-CSF (GM-CSF; 1 µM): IV8 (30% < IV8 ≤ 40%)
O=C1CCC(N2Cc3c(ccc(CN4CCC(N5CCN(C(c6ccccc6)c6ccccn6)CC5)C(F)(F)C4)c3F)C2=O)C(=O)N1 (stereo not drawn)	a6 (60% < a6 ≤ 70%)	a7 (70% < a7 ≤80%)	–	IV11 (60% < IV11 ≤ 70%)	IV11 (60% < IV11 ≤ 70%)	IV9 (40% < IV9 ≤ 50%)	IV1 0	A (0% ≤ substrate protein remaining % ≤ 80%)	B (80%< substrate protein remaining %≤ 100%)	B (80%< substrate protein remaining %≤ 100%)	A (0% ≤ substrate protein remaining % ≤ 80%)	B (80%< substrate protein remaining %≤ 100%)	B (80%< substrate protein remaining %≤ 100%)	IV8 (30% < IV8 ≤ 40%)	IV1 0	IV1 2	–	IV1 3	–
O=C1CCC(N2Cc3cc(CN4CCC(N5CCN(C(c6ccccc6)c6ccccc6)CC5)C(F)(F)C4)ccc3C2=S)C(=O)N1 (stereo not drawn)	–	–	IV4 (-50% ≤ IV4 < 0%)	IV4 (-50% ≤ IV4 < 0%)	IV8 (30% < IV8 ≤ 40%)	–	–	–	–	–	–	–	–	–	–	–	IV9 (40% < IV9 ≤ 50%)	–	Inhibition Rate (%) IL-1β (IL-1β): IV9 (40% < IV9 ≤ 50%); IC50 (CRBN): 100 to 500 nM
O=C1CCC(N2C(=O)c3cccc(CN4CCC(N5CCN(C(c6ccccc6)c6ccccc6)CC5)CC4)c3C2=O)C(=O)N1 (stereo not drawn)	–	–	IV11 (60% < IV11 ≤ 70%)	IV8 (30% < IV8 ≤ 40%)	IV4 (-50% ≤ IV4 < 0%)	IV6 (10% < IV6 ≤ 20%)	IV1 0	A (0% ≤ substrate protein remaining % ≤ 80%)	B (80%< substrate protein remaining %≤ 100%)	B (80%< substrate protein remaining %≤ 100%)	B (80%< substrate protein remaining %≤ 100%)	B (80%< substrate protein remaining %≤ 100%)	B (80%< substrate protein remaining %≤ 100%)	–	–	IV1 1	IV1 2	IV1 1	–

More lines, main results first:

Inhibition Rate at 0.5 µM (%) (CRBN)	Inhibition Rate at 2 µM (%) (CRBN)	Compound	Inhibition Rate (%) IL-2 (IL-2; 0.1 µM)	Inhibition Rate (%) TNF-α (TNF-α; 0.1 µM)	Inhibition Rate (%) IL-1α (IL-1α; 0.1 µM)	Inhibition Rate (%) IL-10 (IL-10; 0.1 µM)	Inhibition Rate (%) IL-10 (IL-10; 1 µM)	substrate protein remaining % (IKZF3) (IKZF3)	substrate protein remaining % (WEE1) (WEE1)	substrate protein remaining % (CK1a) (CK1α)	substrate protein remaining % (GSPT1) (GSPT1)	substrate protein remaining % (IKZF 1) (IKZF1)	substrate protein remaining % (IKZF2) (IKZF2)	Inhibition Rate (%) IL-5 (IL-5; 0.1 µM)	Inhibition Rate (%) IL-5 (IL-5; 1 µM)	Inhibition Rate (%) TNF-α (TNF-α; 1 µM)	Inhibition Rate (%) IL-2 (IL-2; 1 µM)	Inhibition Rate (%) IL-1α (IL-1α; 1 µM)	further results
a7 (70% < a7 ≤80%)	a8 (80% < a8 ≤100%)	O=C1CCC(N2Cc3cc(CCN4CCC(N5CCN(C(c6ccccc6)c6ccccn6)CC5)C(F)(F)C4)ccc3C2=O)C(=O)N1 (stereo not drawn)	IV9 (40% < IV9 ≤ 50%)	IV8 (30% < IV8 ≤ 40%)	IV6 (10% < IV6 ≤ 20%)	IV6 (10% < IV6 ≤ 20%)	IV9 (40% < IV9 ≤ 50%)	B (80%< substrate protein remaining %≤ 100%)	B (80%< substrate protein remaining %≤ 100%)	A (0% ≤ substrate protein remaining % ≤ 80%)	A (0% ≤ substrate protein remaining % ≤ 80%)	B (80%< substrate protein remaining %≤ 100%)	B (80%< substrate protein remaining %≤ 100%)	IV10 (50% < IV 10 ≤ 60%)	IV9 (40% < IV9 ≤ 50%)	–	–	–	Inhibition Rate (%) GM-CSF (GM-CSF; 0.1 µM): IV9 (40% < IV9 ≤ 50%); Inhibition Rate (%) GM-CSF (GM-CSF; 1 µM): IV9 (40% < IV9 ≤ 50%)
a5 (53% < a5 ≤ 60%)	a8 (80% < a8 ≤100%)	CC1(C)CCC(C(=O)N2CCN(C3CCN(Cc4ccc5c(c4)CN(C4CCC(=O)NC4=O)C5=S)CC3(F)F)CC2)=C(c2ccc(Cl)cc2)C1 (stereo not drawn)	–	IV5 (0% < IV5 ≤ 10%)	IV11 (60% < IV11 ≤ 70%)	–	–	–	–	–	–	–	–	–	–	IV9 (40% < IV9 ≤ 50%)	–	–	Inhibition Rate (%) IL-1β (IL-1β): IV10 (50% < IV 10 ≤ 60%); Inhibition Rate at 10 nM (%) ([1]; 10 nM): 1b5 (32% ≤ 1b5 < 42%); Inhibition Rate at 500 nM (%) ([1]; 500 nM): 1b9 (70% ≤ 1b9 < 80%)
